Data: ChEMBL document CHEMBL1123268 (J Med Chem, 1986)

Tests used:
[1] = test system: L1210; assay: Compound was tested for anticancer activities against L1210 leukemia in CD2F1 male mice at dose of 50 mg/kg per day; 0/6
[2] = test system: L1210; assay: Compound was tested for anticancer activities against L1210 leukemia in CD2F1 male mice at dose of 50 mg/kg per day
[3] = test system: L1210; assay: Anticancer activities against L1210 leukemia in CD2F1 male mice at dose of 50 mg/kg per day
[4] = test system: P388; assay: Antineoplastic activity against P388 leukemia in CD2F1 male mice and the percent increase in life span was measured on day 30.
[5] = test system: P388; assay: Number of cures from P388 leukemia in CD2F1 male mice as tumor-free survivors after day 60.
[6] = test system: P388; assay: Antineoplastic activities against P388 leukemia in CD2F1 male mice.; type: functional, Mus musculus
Outline: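 P388 leukemia: CD2F1 male mice (18-20 g, six per group) received 10^6 cells ip on day 0. Drug injected ip daily on days 1-9. Survival followed 30 days, with some groups to 60 days. Activity read as treated/control mean survival time (T/C), with %ILS calculated as [(T - C)/C] × 100. NCI protocol.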

[7] = test system: P388; assay: Antineoplastic activity against P388 leukemia in CD2F1 male mice and the average percentage weight change on day 5 was measured.
[8] = test system: L1210; assay: Compound was tested for anticancer activities against L1210 leukemia in CD2F1 male mice at dose of 50 mg/kg per day; 7.1/7
[9] = test system: L1210; assay: Compound was tested for anticancer activities against L1210 leukemia in CD2F1 male mice at dose of 50 mg/kg per day; 9.0/7
[10] = test system: P388; assay: Compound was tested for its antineoplastic activity against P388 leukemia in CD2F1 male mice and the percent increase in life span was measured on day 30.
[11] = test system: P388; assay: Compound was tested for its antineoplastic activities against P388 leukemia in CD2F1 male mice.
[12] = test system: P388; assay: Compound was tested for number of cures from P388 leukemia in CD2F1 male mice as tumor-free survivors after day 60; 2/6
[13] = Therapeutic ratio as optimum dose/dose ILS40
Outline: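 Therapeutic ratio derived from the P388/L1210 survival data (CD2F1 male mice, ip daily dosing days 1-9). Optimum dose is the daily dose giving maximum increase in life span. ILS40 dose is the daily dose giving a 40% increase in life span over controls.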

[14] = test system: L1210; assay: Compound was tested for anticancer activities against L1210 leukemia in CD2F1 male mice at dose of 50 mg/kg per day; 7.4/7
[15] = test system: L1210; assay: Compound was tested for anticancer activities against L1210 leukemia in CD2F1 male mice at dose of 25 mg/kg per day; 0/6
[16] = test system: L1210; assay: Compound was tested for anticancer activities against L1210 leukemia in CD2F1 male mice at dose of 25 mg/kg per day
[17] = test system: L1210; assay: Compound was tested for anticancer activities against L1210 leukemia in CD2F1 male mice at dose of 25 mg/kg per day; 6.4/7
[18] = test system: L1210; assay: Compound was tested for anticancer activities against L1210 leukemia in CD2F1 male mice at dose of 50 mg/kg per day; 9.3/7
[19] = test system: L1210; assay: Compound was tested for anticancer activities against L1210 leukemia in CD2F1 male mice at dose of 50 mg/kg per day; 7.0/7
[20] = test system: L1210; assay: Compound was tested for anticancer activities against L1210 leukemia in CD2F1 male mice at dose of 25 mg/kg per day; 7.7/7
[21] = test system: L1210; assay: Compound was tested for anticancer activities against L1210 leukemia in CD2F1 male mice at dose of 25 mg/kg per day; 8.2/7
[22] = test system: L1210; assay: Compound was tested for anticancer activities against L1210 leukemia in CD2F1 male mice at dose of 50 mg/kg per day; 8.6/7

SMILES | Survivors at day 30 [1] | T/C [2] [%] | ILS [3] [%] | ILS [4] [%] | Cures (survivors/total) [5] | Optimal dose [6] | Weight change on day 5 [7] [%] | ILS max [10] [%] | ILS40 (mg kg-1 day-1) [11] | Cures (survivors/total) [12] | Therapeutic ratio [13] | Survivors at day 30 [15] | ILS [16] [%] | T/C [16] [%] | other results
CC1(C)CC(NC(=O)NP(=O)(N2CC2(C)C)N2CC2(C)C)CC(C)(C)N1O (stereo not given) | 0 | 101 | 1 | 44 | 0 | 90 | 4.8 |  |  |  |  |  |  |  | T/C survival days [8]: 7.1
CC1(C)CC(NC(=O)NP(=O)(N2CC2)N2CC2)C(C)(C)N1O (stereo not given) | 0 | 128 | 28 | 142 |  | 100 | 5.6 | 232 | 19 | 2 | 5.3 |  |  |  | T/C survival days [9]: 9
CC1(C)CC(NC(=O)NP(=O)(N2CC2(C)C)N2CC2(C)C)CC(C)(C)N1 (stereo not given) | 0 | 106 | 6 | 38 | 0 | 140 |  |  |  |  |  |  |  |  | T/C survival days [14]: 7.4
CC1(C)CN1P(=O)(NC(=O)NC12CC3CC(CC(C3)C1)C2)N1CC1(C)C (stereo not given) |  |  |  | 32 | 0 | 60 | 14 |  |  |  |  | 0 | -8 | 92 | T/C survival days [17]: 6.4
CC1(C)CC(NC(=O)NP(=O)(N2CC2)N2CC2)CC(C)(C)N1O | 0 | 133 | 33 | 153 |  | 100 | -4.5 | 292 | 16 | 2 | 6.2 |  |  |  | T/C survival days [18]: 9.3
CC1(C)CC(NC(=O)NP(=O)(N2CC2(C)C)N2CC2(C)C)C(C)(C)N1O (stereo not given) | 0 | 100 | 0 | 40 | 0 | 90 | 6.1 |  |  |  |  |  |  |  | T/C survival days [19]: 7
O=C(NC12CC3CC(CC(C3)C1)C2)NP(=O)(N1CC1)N1CC1 |  |  |  | 35 | 0 | 60 |  |  |  |  |  | 0 | 10 | 110 | T/C survival days [20]: 7.7
CC1(C)CC(NC(=O)NP(=O)(N2CC2)N2CC2)CC(C)(C)N1 | 0 | 123 | 23 | 157 |  | 140 | -8.8 | 224 | 17.5 | 2 | 8 | 0 | 17 | 117 | T/C survival days [21]: 8.2; T/C survival days [22]: 8.6
